{"source": "PubChem BioAssay AID1454", "about": "(National Center for Advancing Translational Sciences (NCATS), 2008)", "note": "This is a selection; strong and weak results do not stand in their true shares. Inconclusive results are not listed. Some salts and complexes are drawn in separate pieces, as the source files them; their charges need not balance. Calls of active or inactive are those of the source. The call rests on the fitted dose curve; in most records, active means well fitted inhibition curve with a large enough effect; inconclusive means small, poorly fitted or top-dose-only effect, or effect the other way; inactive means flat fitted curve, though single readings scatter."}
{"assay": "qHTS Assay for Inhibitors of the ERK Signaling Pathway using a Homogeneous Screening Assay; Stimulation with EGF;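 further: plate controls were stimulated vehicle wells for no effect and unstimulated vehicle basal for full effect; nearly all actives have a fitted effect of over 55% in size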", "settings": "HEK293-V1b, EGF-stimulated phospho-ERK AlphaScreen; at 11.5 µM unless noted"}
{"compound": "O=C(OC1CN2CCC1CC2)C1c2ccccc2C=Cc2ccccc21", "note": "(stereo not drawn)", "activity change, negative = inhibition": "inactive: 8.41%"}
{"compound": "O=C(O)c1cccc(Nc2c([N+](=O)[O-])cc([N+](=O)[O-])cc2[N+](=O)[O-])c1", "activity change, negative = inhibition": "inactive: -6.35% [at 57.5 µM]"}
{"compound": "COc1ccc(C(=O)NCC2(N3CCOCC3)CCCCC2)cc1OC", "activity change, negative = inhibition": "inactive: 4.95%"}
{"compound": "N#Cc1ccc(C(=O)NCC2(N3CCCCC3)CCCCC2)cc1", "activity change, negative = inhibition": "inactive: -8.26%"}
{"compound": "CCOC(=O)C(CC)C1=NC(C)(C)Cc2ccccc21.O=[N+]([O-])c1cc([N+](=O)[O-])c(O)c([N+](=O)[O-])c1", "note": "(stereo not drawn)", "activity change, negative = inhibition": "inactive: -10.7% [at 57.5 µM]"}
{"compound": "CCN1CCC(Nc2cccc(F)c2)CC1", "activity change, negative = inhibition": "inactive: 6.36%"}
{"compound": "CN(C)c1ccc(C(=O)NCC2(N3CCCCC3)CCCCC2)cc1", "activity change, negative = inhibition": "inactive: -3.77%"}
{"compound": "COc1cc(OC)cc(C(=O)NCC2(N3CCOCC3)CCCCC2)c1", "activity change, negative = inhibition": "inactive: -5.12%"}
{"compound": "CCCOc1ccc(C)cc1CN(CCCl)CCCl", "activity change, negative = inhibition": "inactive: 5.09% [at 57.5 µM]"}
{"compound": "CC(C)(C)OC(=O)N1CCC(Nc2ccccc2)CC1", "activity change, negative = inhibition": "inactive: -6.53%"}
{"compound": "CCOC(=O)N1CCC(Nc2ccc(OC)cc2)CC1", "activity change, negative = inhibition": "inactive: -0.842%"}
{"compound": "N#CC1(Nc2ccccc2)CCN(Cc2ccccc2)CC1", "activity change, negative = inhibition": "inactive: 0.82% [at 57.5 µM]"}
{"compound": "COc1ccc(C(=O)NCC2(N3CCCCC3)CCCCC2)c(OC)c1OC", "activity change, negative = inhibition": "inactive: -3.78%"}
{"compound": "Cc1ccc(OCC(C)C)c(CN(CCCl)CCCl)c1", "activity change, negative = inhibition": "inactive: 16.3% [at 57.5 µM]"}
{"compound": "CCOc1ccc(C)cc1CN(CCCl)CCCl", "activity change, negative = inhibition": "inactive: -1.76% [at 57.5 µM]"}
{"compound": "O=[N+]([O-])c1cc([N+](=O)[O-])c(NCC2CCS(=O)(=O)C2)c([N+](=O)[O-])c1", "note": "(stereo not drawn)", "activity change, negative = inhibition": "inactive: 0.213%"}
{"compound": "CN1CCN(CCOC(=O)C(O)(c2ccccc2)c2ccccc2)CC1", "activity change, negative = inhibition": "inactive: -7.16%"}
{"compound": "COc1ccc(NC2CCN(C(=O)OC(C)(C)C)CC2)cc1", "activity change, negative = inhibition": "inactive: -2.24%"}
{"compound": "O=C(NCC1(N2CCCCC2)CCCCC1)c1cccc([N+](=O)[O-])c1", "activity change, negative = inhibition": "inactive: 4.45%"}
{"compound": "COc1ccc2c(c1O)-c1c(O)c(OC)cc3c1[C@H](C2)[N+](C)(C)CC3.O=[N+]([O-])c1cc([N+](=O)[O-])c([O-])c([N+](=O)[O-])c1[O-]", "activity change, negative = inhibition": "inactive: -1.29% [at 57.5 µM]"}
{"compound": "O=C(OC1CN2CCC1CC2)c1ccc([N+](=O)[O-])cc1", "note": "(stereo not drawn)", "activity change, negative = inhibition": "inactive: -0.676% [at 57.5 µM]"}
{"compound": "COc1ccc(CN(CCCl)CCCl)cc1Cl", "activity change, negative = inhibition": "inactive: 30.4%"}
{"compound": "CN(C)c1cccc(C(=O)NCC2(N3CCCCC3)CCCCC2)c1", "activity change, negative = inhibition": "inactive: -5.94%"}
